This assay has as its target T1, Ggc1p (yeast mitochondrial GDP/GTP carrier) (Saccharomyces cerevisiae, UniProt P38988).
T1 sequence (P38988 1-300): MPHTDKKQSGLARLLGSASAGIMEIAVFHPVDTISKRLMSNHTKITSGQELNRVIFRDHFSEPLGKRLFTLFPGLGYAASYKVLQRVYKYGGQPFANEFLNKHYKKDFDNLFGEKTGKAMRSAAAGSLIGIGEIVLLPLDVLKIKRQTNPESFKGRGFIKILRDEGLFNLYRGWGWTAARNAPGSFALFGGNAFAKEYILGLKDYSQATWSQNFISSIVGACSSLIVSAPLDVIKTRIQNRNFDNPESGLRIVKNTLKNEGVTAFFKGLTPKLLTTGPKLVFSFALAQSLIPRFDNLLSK
Further details: gene GGC1. The conditions noted are these: GTP/GTP exchange and citrate-induced uptake; concentration not given; thiol reagent added 2 min before [8-3H]GTP (1 μM); pH 7.0, 25 °C.

From article PMC9410265, “Citrate Regulates the Saccharomyces cerevisiae Mitochondrial GDP/GTP Carrier (Ggc1p) by Triggering Unidirectional Transport of GTP” (Journal of Fungi, 2022) come the findings set out here.

Turning to `COC([CH2][Hg+])CNC(=O)c1ccccc1OCC(=O)O` (stereo not shown) [mersalyl], the “% inhibition” value was “only partially inhibited by sulfhydryl reagents such as mercury chloride and mersalyl”.
